B1: BnHD, hydrophilic domain of the Brassica napus group 3 LEA protein (domain or fragment)
chain: TAQKAQQKAQETAQAAKDKTSQAAQTTQQKAQETAQAAKDKTSQAAQTTQQKAHETTQSSKEKTSQAAQTAQEKARETKDKTGSYLSETGEAVKQKAQDAAQYTKETAQNAAQYTKETAEA
modifications: labelled with the Monolith NT Protein Labeling Kit RED-NHS
B2: CeHD, hydrophilic domain of the Caenorhabditis elegans group 3 LEA protein (domain or fragment)
chain: AYNSAKDKAGDAWDSTKDAAGDAKDKTKSFTEKVGDKISGAYDSVKEKASDVADSFKAHSTDSKDNVENKAADAYNTAKDKASDAWDKTKDKAGEAKDKMGDAWDTTKDKAGDAWDTTKDKAGDGKGKAGDAWDTTKDKASDAWDTTKDKAGEAKDKMGEAWDHTKDKAGEAKDKASDAADDAQGKSKSMTEKIGDSISGAWESTKDTAVSAKDKTAEAAGKVGDSISGAYDTVKEKASDIADSFKAHSTDSKDNVENKAADAYNSAKDKASDAWDKTKDKAGDAKDKAADAWDTTKDKAGDAWDSTKDHAADAKDKASDAAGDAKDKSKSLTEKAGDAISGAYDSVKEKASDIADSFKAHSTNSKDNVENKASDAYNSAKDKASDAWDKTKDKAGEAKDKAGDAWDNTKDKAGNAWDSTKDKASDAWDTTKDKASDAKESAGDAADSAKDKSKSITETIGDKISGAYDSVKEKASD
modifications: labelled with the Monolith NT Protein Labeling Kit RED-NHS
B3: DrHD, hydrophilic domain of DrG3LEA (Deinococcus radiodurans group 3 LEA protein) (domain or fragment)
chain: VADTAKDAGQNVGQNVKREAADLADQAKDKAQDVKADVSKAADQAKDKAQDVAQNVQAGAQQAAANVKDKVQDVKADASKAADQAKDKAQDVAQNVKQGAQQAASDAKDKVQDVKADASRAADQAKDKAQDVAQNVKQSAQD
modifications: labelled with the Monolith NT Protein Labeling Kit RED-NHS

Target: lactate dehydrogenase (LDH)
Assay: MST; 10 mM H2O2

Compared with B1, B2 is 2.8-fold lower in Kd: 580 nM for the first, 210 nM for the second. The second binds more tightly here.

B3 showed a Kd of 70 nM.

From publication PMC6559209 (2019)
